# Reference: patent US9464044B2, “Compound having ability to inhibit 11Beta-HSD1 enzyme or pharmaceutically acceptable salt thereof, method for producing same, and pharmaceutical composition containing same as active ingredient” (AHN-GOOK PHARMACEUTICAL CO., LTD., priority 2012, dated 2016)
# Amino acid sequences for entries named in this document (tags omitted). A change or cut given only in a name is not applied to a line headed by its entry.
# UniProt P28845: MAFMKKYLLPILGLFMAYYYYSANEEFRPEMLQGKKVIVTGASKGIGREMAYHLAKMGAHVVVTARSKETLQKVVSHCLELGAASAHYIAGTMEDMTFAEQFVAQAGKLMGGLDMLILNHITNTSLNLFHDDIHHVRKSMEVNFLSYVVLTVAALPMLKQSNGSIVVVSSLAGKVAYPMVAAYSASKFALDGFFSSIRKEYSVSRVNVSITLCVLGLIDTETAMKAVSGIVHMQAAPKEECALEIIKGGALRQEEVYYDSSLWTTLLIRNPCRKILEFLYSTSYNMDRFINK
# Biological target: 11β-HSD1 (Homo sapiens (Human), UniProt P28845)
# Test: 11β-HSD1 inhibiting activity, HTRF assay with human microsomal fractions
# Format: biochemical
# Details: 160 nM cortisone, 200 μM NADPH, 2 h at 37° C.
# Description: The inhibiting activity of 11β-HSD1 derived from microsomal fractions was measured using the HTRF assay (62CO2PEB, Cisbio). […] Europium (Eu^3+) cryptate and XL665-conjugated cortisol were then added to each well and incubated for an additional 2 h at room temperature. The Cortisol concentration was calculated u sing a calibration curve. The IC50 values were calculated from dose response curves using GraphPad Prism software.
row,Compound,IC50
1,"NC(=O)C12CC3CC(C1)C(NC(=O)C1(CNS(=O)(=O)c4cccs4)CC1)C(C3)C2 (stereo not shown) [Example 19, E-4-[1-((thiophen-2-sulfonylamino)methyl)cyclopropanecarboxamido]-adamantan-1-carboxylic acid amide]",17.8 nM
2,"NC(=O)C12CC3CC(C1)C(NC(=O)C1(CNS(=O)(=O)c4ccccc4)CC1)C(C3)C2 (stereo not shown) [Example 28, E-4-[1-((benzenesulfonylamino)methyl)cyclopropanecarboxamido]-adamantan-1-carboxylic acid amide]",1.2 nM
3,"NC(=O)C12CC3CC(C1)C(NC(=O)C1(CNS(=O)(=O)c4cc(F)c(F)cc4F)CC1)C(C3)C2 (stereo not shown) [Example 36, E-4-[1-((2,4,5-trifluoro-benzenesulfonylamino)methyl)cyclopropanecarboxamido]-adamantan-1-carboxylic acid amide]",73 nM
4,"NC(=O)C12CC3CC(C1)C(NC(=O)C1(NC(=O)c4ccc(F)c(F)c4)CC1)C(C3)C2 (stereo not shown) [Example 57, E-4-[1-(3,4-difluoro-benzeneamino)cyclopropanecarboxamido]-adamantan-1-carboxylic acid amide]",9.3 nM
5,"CN(C1(C(=O)NC2C3CC4CC2CC(C(N)=O)(C4)C3)CC1)S(=O)(=O)c1ccccc1F (stereo not shown) [Example 61, E-4-[1-(2-fluoro-N-methylbenzenesulfonylamino)cyclopropanecarboxamido]-adamantan-1-carboxylic acid amide]",2.8 nM
6,"NC(=O)C12CC3CC(C1)C(NC(=O)c1cccc(NS(=O)(=O)c4cccc(Cl)c4)c1)C(C3)C2 (stereo not shown) [Example 95, E-4-[3-(3-chloro-benzenesulfonylamino)-benzamido]-adamantan-1-carboxylic acid amide]",13.1 nM
7,"CN(c1cccc(C(=O)NC2C3CC4CC2CC(C(N)=O)(C4)C3)c1)S(=O)(=O)c1cccc(Cl)c1 (stereo not shown) [Example 97, E-4-(3-[(3-chloro-benzenesulfonyl)-methylamino]-benzamido)-adamantan-1-carboxylic acid amide]",15.6 nM
8,"NC(=O)C12CC3CC(C1)C(NC(=O)c1cccc(NS(=O)(=O)c4cccs4)c1)C(C3)C2 (stereo not shown) [Example 102, E-4-[3-(thiophen-2-sulfonylamino)-benzamido]-adamantan-1-carboxylic acid amide]",1.1 nM
9,"NC(=O)C12CC3CC(C1)C(NC(=O)c1cccc(NS(=O)(=O)c4cc(Cl)cc(Cl)c4)c1)C(C3)C2 (stereo not shown) [Example 119, E-4-[3-(3,5-dichloro-benzenesulfonylamino)benzamido]-adamantan-1-carboxylic acid amide]",< 1 nM and 0.9 nM
10,"NC(=O)C12CC3CC(C1)C(NC(=O)c1cc(NS(=O)(=O)c4cccc(Cl)c4)ccc1Cl)C(C3)C2 (stereo not shown) [Example 126, E-4-[2-chloro-5-(3-chloro-benzenesulfonylamino)benzamido]adamantan-1-carboxylic acid amide]",67.5 nM
11,"COc1ccc(S(=O)(=O)Nc2ccc(Cl)c(C(=O)NC3C4CC5CC3CC(C(N)=O)(C5)C4)c2)cc1Cl (stereo not shown) [Example 133, E-4-[2-chloro-5-(3-chloro-4-methoxybenzenesulfonylamino)benzamido]adamantan-1-carboxylic acid amide]",14.8 nM

# Second part, the compound after the results:
row,IC50,Compound
1,9.5 nM,"NC(=O)C12CC3CC(C1)C(NC(=O)C1(CNS(=O)(=O)c4c(F)cc(F)cc4F)CC1)C(C3)C2 (stereo not shown) [Example 12, E-4-[1-((2,4,6-trifluoro-benzenesulfonylamino)methyl)cyclopropanecarboxamido]-adamantan-1-carboxylic acid amide]"
2,17.1 nM,"NC(=O)C12CC3CC(C1)C(NC(=O)C1(CNS(=O)(=O)c4ccc(Cl)cc4)CC1)C(C3)C2 (stereo not shown) [Example 37, E-4-[1-((4-chloro-benzenesulfonylamino)methyl)cyclopropanecarboxamido]-adamantan-1-carboxylic acid amide]"
3,672 nM,"NC(=O)C12CC3CC(C1)C(NC(=O)C1(NC(=O)c4ccccc4F)CC1)C(C3)C2 (stereo not shown) [Example 63, E-4-[1-(2-fluorobenzamido)cyclopropanecarboxamido]-adamantan-1-carboxylic acid amide]"
4,78.3 nM,"NC(=O)C12CC3CC(C1)C(NC(=O)c1ccc(F)c(NS(=O)(=O)c4cccc(Cl)c4)c1)C(C3)C2 (stereo not shown) [Example 127, E-4-[3-(3-chlorobenzenesulfonylamino)-4-fluorobenzamido]adamantan-1-carboxylic acid amide]"
5,41.8 nM,"NC(=O)C12CC3CC(C1)C(NC(=O)c1cc(NS(=O)(=O)c4cc(Cl)cc(Cl)c4)ccc1Cl)C(C3)C2 (stereo not shown) [Example 129, E-4-[2-chloro-5-(3,5-dichlorobenzenesulfonylamino)benzamido]adamantan-1-carboxylic acid amide]"

# Where “and” joins values, the source holds several entries; their conditions need not be identical. Equal entries are not always repeated.
